Laboratory results reported in US20250171423A1, “PHARMACEUTICAL COMPOUNDS FOR THE TREATMENT OF COMPLEMENT MEDIATED DISORDERS” (Achillion Pharmaceuticals, Inc., priority 2020, published 2025).

Sequences of proteins named here, by UniProt entry; tags and fusion partners are left off. Residues count along the entry.
UniProt P09871, 438-688 limits assumed: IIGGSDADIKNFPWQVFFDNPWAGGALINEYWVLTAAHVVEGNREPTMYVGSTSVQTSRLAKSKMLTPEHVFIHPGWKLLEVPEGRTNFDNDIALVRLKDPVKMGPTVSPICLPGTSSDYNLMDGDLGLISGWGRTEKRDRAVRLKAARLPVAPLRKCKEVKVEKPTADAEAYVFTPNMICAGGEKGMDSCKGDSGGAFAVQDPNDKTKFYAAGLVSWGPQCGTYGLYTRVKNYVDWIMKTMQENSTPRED
UniProt P09871, 16-437 partner limits assumed: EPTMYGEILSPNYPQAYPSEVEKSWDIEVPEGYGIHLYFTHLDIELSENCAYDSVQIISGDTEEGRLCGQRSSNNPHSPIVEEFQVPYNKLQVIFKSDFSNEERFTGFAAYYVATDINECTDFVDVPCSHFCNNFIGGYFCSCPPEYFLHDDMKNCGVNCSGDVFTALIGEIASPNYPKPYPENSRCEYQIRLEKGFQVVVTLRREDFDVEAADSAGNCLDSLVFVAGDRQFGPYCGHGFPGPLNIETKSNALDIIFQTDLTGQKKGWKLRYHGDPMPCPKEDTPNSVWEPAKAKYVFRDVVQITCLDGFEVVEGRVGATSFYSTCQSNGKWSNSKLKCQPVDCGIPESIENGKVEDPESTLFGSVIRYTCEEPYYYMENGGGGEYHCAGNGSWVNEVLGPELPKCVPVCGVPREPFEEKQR

The compounds below were run against Human complement C1s enzyme (Homo sapiens, UniProt P09871) (assay: Human C1s Enzyme Assay). Settings: read-out: C1s Protease Activity; human C1s 1.16 nM, 5 min preincubation, substrate Z-L-Lys-SBzl 100 μM, A405.
Assay type: biochemical
Method: The assay of Example 3 was used to determine the IC50's of the compounds. Other standard complement assays are also available.
Example 3. Human C1s Enzyme Assay
Human complement C1s enzyme (purified from human serum, Complement Technology, Inc.) at 1.16 nM final concentration was incubated with test compound at various concentrations for 5 min at room temperature in 50 mM Tris, 1 M NaCl, pH 7.5. A synthetic substrate Z-L-Lys-SBzl and DTNB (Ellman's reagent) were added to final concentrations of 100 μM each. Absorbance at 405 nm (A405) was recorded at 30 second intervals for 30 min using a microplate spectrophotometer. IC50 values were calculated by nonlinear regression of complement C1s reaction rates as a function of test compound concentration.

`C[C@@]12C[C@@H]1N(C(=O)CNC(=O)c1ccc(OCc3ccccc3)cc1)[C@H](C(=O)NCc1cc(C(=N)N)cs1)C2` and `C[C@@]12C[C@@H]1N(C(=O)CNC(=O)c1ccc(Oc3ccccc3)cc1)[C@H](C(=O)NCc1cc(C(=N)NC(N)=O)cs1)C2` cannot be ordered by IC50: < 100 nM for the first, < 100 nM for the second.

`C[C@@]12C[C@@H]1N(C(=O)CNC(=O)c1ccc(Oc3ccccc3)cc1)[C@H](C(=O)NCc1cc(C(=N)NC#N)cs1)C2` was tested, and the IC50 was > 1000 nM.
